These results are taken from patent US12605371B2, “Combination therapy for cancer” (The Board of Trustees of the Leland Stanford Junior …, priority 2020, dated 2026).

The experiment concerns the target thrombin (Mus musculus, UniProt P19221).

On to `CCCCCCOC(=O)N=C(N)c1ccc(NCc2nc3cc(C(=O)N(CCC(=O)OCC)c4ccccn4)ccc3n2C)cc1` [DE, dabigatran etexilate], for which the “correlation (R) of aPTT prolongation and tumor weight” value (WT mice treated with DE) was −0.37. Besides, where the note is “blood collected at sacrifice, DE chow”, the “thrombin activity by aPTT (in words)” value is given as “blocked thrombin activity”.
